Screens from PubChem.
miR-21 reporter = raises the signal of a miR-21 reporter; Potency, µM (doses to about 38.3 µM), inactives show top-dose reporter change, positive = more light; HeLa miR-21 FLuc reporter, luciferase, 48 h; AID 2288; 340,000 tested, under 10 active; active = well fitted rising curve with a large enough effect; inconclusive = small, poorly fitted or top-dose-only effect; inactive = no such curve, though single readings can be large or run the other way;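 further: % of control where 0% means no effect; miR-21 action dims this reporter so a rising signal means less miR-21 action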
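Luminescence from a firefly luciferase reporter carrying a miR-21 binding site downstream, stably expressed under a CMV promoter in HeLa cells that make miR-21 endogenously, reports miRNA modulation after 48 h compound exposure up to approximately 40uM final.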
Nrf2 block = inhibitors of Nrf2 signaling; A549 ARE-Fluc reporter, luciferase luminescence, 18-24 h; Potency, µM (highest dose often 46 µM), inactives show top-dose activity change, negative = inhibition, usual class: inhibitors; hit rate 2.1% among 360,000; AID 504444; note: potency is the fitted concentration of half-maximal effect; % is set by controls: 0 for no effect and ±100 for the full control effect; nearly all actives have a fitted effect of over 60% in size
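Nrf2 function is reported as luminescence of an ARE-controlled luciferase in A549 cells. Compounds were tested at several concentrations, and a CellTiter-Fluor read on the same wells flagged cytotoxicity.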
ClpP mod = qHTS Assay for Activators of ClpP | ATP-dependent Clp protease proteolytic subunit (Bacillus subtilis (strain 168)), P80244 | purified B. subtilis ClpP, FRET peptide cleavage, 20 min | Potency, µM (series often up to 57.5 µM), inactives show at the highest dose activity change, negative = active | hit rate 1.9% among 340,000 | AID 651965, 2013; active = well fitted falling curve with a large enough effect; inconclusive = small, poorly fitted or top-dose-only effect; inactive = no such curve, though single readings can be large or run the other way; note: potency is the fitted concentration of half-maximal effect; the source files actives as falling curves though it sought activators and does not explain the sign; nearly all actives have a fitted effect of over 65% in size
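Buffer: 100 mM Tris/HCl pH8, 100 mM KCl, 0.05% low protease BSA, 2.5% glycerol, 0.01% Tween-20. ClpP 10 microg/mL final; 20 min RT; delta FRET normalized to ADEP and DMSO controls.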
TCR activator = T cell receptor activation. primary human leukocytes, anti-CD3, IL-2 HTRF, 48 h. Potency, µM (highest dose often 9.22 µM), inactives show at the top dose activation of IL-2 secretion, actives largely listed as activators. 330,000 tested, under 10 active. AID 504894; note: % of control where 0% means no effect
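Using a-CD3 beads without co-stimulation, primary human leukocytes were exposed to compounds for 48 hr. An HTRF IL-2 kit measured the cytokine, with europium-to-d2 energy transfer producing emission at 665nm upon 320nm excitation.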
Nrf2 ARE act = activates Nrf2 signaling. AREc32 ARE-luciferase reporter (MCF7-derived line), luminescence, 24 h. Potency, µM (series often up to 46.1 µM), without a hit: at the top dose activation, most hits filed as activators. hit rate 0.31% among 410,000; note: potency is the fitted concentration of half-maximal effect; % of control where 0% means no effect; nearly all actives have a fitted effect of over 65% in size
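Steps: seed AREc32_Fluc cells (1000/well, 5% FBS OPTI-MEM); incubate overnight at 37 deg C; add 23 nL compound; incubate 24 hr; add Steady-Glo; hold 30 min RT; read luminescence.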
A549 viability = A549 cytotoxicity, counter-screen for Nrf2 inhibitors | A549 ARE-Fluc cells, CellTiter-Fluor viability, 18-24 h | AID 504648 | Potency, µM (top dose mostly 46 µM), for inactives: top-dose activity change, negative = cytotoxicity, actives largely listed as inhibitors | hit rate 0.16% among 390,000; note: potency is the fitted concentration of half-maximal effect; % is set by controls: 0 for no effect and ±100 for the full control effect
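Cytotoxicity counterscreen: CellTiter-Fluor fluorescence was measured in A549 ARE_Fluc cells after 18-24 h of compound exposure in a concentration series. The subsequent BugLite luminescent read reports ARE-luciferase activity.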
The depositor's hits bear a star; [ ] = dose if it differs, or a comment. An excerpt weighted towards active compounds, which were near 3.7% of everything screened. Unless noted, calls come from the whole dose curve; as a rule, active = well fitted curve in the direction sought with a large enough effect; inconclusive = small, poorly fitted or top-dose-only effect, or another doubt; inactive = no such curve, though single readings can be large; an effect the other way counts as inactive or inconclusive.

Screening O=C(Nc1ccccc1OC(F)F)c1cc2c(s1)CCC2 returned miR-21 reporter -45%, Nrf2 block inconclusive, ClpP mod -5%, TCR activator -5%[46.1 µM], Nrf2 ARE act 7% and A549 viability 6%.
`Cc1ccc(-n2c(SCc3nc(-c4ccccc4C)no3)nnc2-c2ccncc2)cc1C` gave miR-21 reporter -1%, Nrf2 block -102%, ClpP mod 0%, Nrf2 ARE act 0% and A549 viability inconclusive.
Screening NC(=O)c1cc(S(=O)(=O)Nc2ccc(OC(F)(F)F)cc2)cs1 returned miR-21 reporter 0%, Nrf2 block 18µM*, ClpP mod 1%, TCR activator -18%, Nrf2 ARE act 0% and A549 viability -3%.
For O=C(CCS(=O)(=O)c1cc2c3c(c1)CCN3C(=O)CC2)Nc1cccc(Br)c1 the results were miR-21 reporter -1%, Nrf2 block 10%, ClpP mod 0%, Nrf2 ARE act -1% and A549 viability -15%.
For Cc1ccc(C)c(CN2C(=O)c3ccccc3S(=O)c3ccc(C(=O)N(C)Cc4ccccc4)cc32)c1 (configuration not stated) the results were miR-21 reporter 17%, Nrf2 block 21µM*, ClpP mod -1%, Nrf2 ARE act 0% and A549 viability -26%.
For CCOc1ccccc1C(=O)NCCN1CCC(n2c(=O)[nH]c3ccccc32)CC1 the results were ClpP mod 2.8µM* and Nrf2 ARE act 5%.
Screening COc1ccccc1C(=O)NCCN1CCC(n2c(=O)[nH]c3ccccc32)CC1 returned ClpP mod 0% and Nrf2 ARE act 0%.
Screening COc1cc2c(cc1OC)C1O[C@](c3ccsc3)(C2)OC2=C1C(=O)OC1(CCCCC1)C2 returned miR-21 reporter -16%[7.66 µM].
`CC(=O)c1c(C)[nH]c(C(=O)OCC(=O)Nc2cc(C)on2)c1C` gave miR-21 reporter 1%, Nrf2 block inconclusive, ClpP mod -4%, Nrf2 ARE act 3% and A549 viability -6%.
For CCOC(=O)c1c(C)[nH]c(C(=O)OCC(=O)NC(C)(C)C)c1C the results were miR-21 reporter 2%, Nrf2 block 18µM*, TCR activator 4%, Nrf2 ARE act 3% and A549 viability -10%.
Screening CC(=O)c1c(C)[nH]c(C(=O)OCC(=O)Nc2ccc3c(c2)OCCO3)c1C returned Nrf2 block 16µM*, ClpP mod 1%, TCR activator -6%, Nrf2 ARE act 2% and A549 viability -1%.
CC(=O)c1c(C)[nH]c(C(=O)OCC(=O)Nc2ccc(Cl)cc2[N+](=O)[O-])c1C was read as miR-21 reporter inconclusive, Nrf2 block 21µM*, ClpP mod 1%, TCR activator 6%[46.1 µM], Nrf2 ARE act 11% and A549 viability -11%.
Screening COc1cc(NC(=O)COC(=O)c2[nH]c(C)c(C(C)=O)c2C)cc(OC)c1 returned Nrf2 block 13µM*, TCR activator 1%, Nrf2 ARE act 6% and A549 viability -17%.
`COC(=O)[C@]12CCCCC=C1N(Cc1cccc3ccccc13)C(=O)[C@H](CC(=O)NCc1cccc(C(F)(F)F)c1)C2` gave ClpP mod -8% and Nrf2 ARE act 3%.
Screening CCOc1ccccc1-c1nc(CN2CCCN(C(=O)c3ccco3)CC2)c(C)o1 returned miR-21 reporter -4%, Nrf2 block -10%, ClpP mod 45%, TCR activator -7%, Nrf2 ARE act 1% and A549 viability -1%.
`O=C1NC[C@@H](CCCCN2C[C@H](Cc3ccc(O)cc3)N(CC3CCCCC3)C(=O)C2=O)N(CCC2CCCCC2)C1=O` gave ClpP mod 1% and Nrf2 ARE act -1%.
For COCC(=O)Nc1cc(OC)cc(OC)c1 the results were miR-21 reporter -1%, ClpP mod 28µM*, TCR activator 0%, Nrf2 ARE act -1% and A549 viability -4%.
COc1cc(NC(=O)CSCC(=O)Nc2cc(OC)cc(OC)c2)cc(OC)c1 was read as miR-21 reporter 0%, Nrf2 block -2%, ClpP mod 1%, TCR activator 4%, Nrf2 ARE act 2% and A549 viability 0%.
`Cc1ccc(C)c(C(O)c2ncc(-c3cccc(F)c3)[nH]2)c1` (configuration not stated) gave ClpP mod -1% and Nrf2 ARE act -1%.
Cc1ccc(CSc2nc3cccnc3n2Cc2ccc(C(=O)NCc3ccco3)cc2)cc1 was read as miR-21 reporter -14%, Nrf2 block 6%, ClpP mod inconclusive, Nrf2 ARE act 5% and A549 viability -5%.
For O=C(NCCc1cccs1)c1ccc(Cn2c(SCc3ccccc3)nc3cccnc32)cc1 the results were miR-21 reporter 17%, Nrf2 block inconclusive, ClpP mod 4%, Nrf2 ARE act 1% and A549 viability -16%.
For Cc1ccc(CNC(=O)c2ccc(Cn3c(SCc4ccc(F)cc4)nc4cccnc43)cc2)o1 the results were miR-21 reporter -9%, Nrf2 block inconclusive, ClpP mod 28µM*, Nrf2 ARE act 6% and A549 viability inconclusive.
For O=C(NCc1cccs1)c1ccc(Cn2c(SCc3ccccc3)nc3cccnc32)cc1 the results were miR-21 reporter -1%, Nrf2 block 26µM*, ClpP mod 4%, Nrf2 ARE act 0% and A549 viability inconclusive.
O=C(NCCc1cccs1)c1ccc(Cn2c(SCc3ccc(F)cc3)nc3cccnc32)cc1 was read as miR-21 reporter -2%, Nrf2 block 18µM*, ClpP mod 25µM*, Nrf2 ARE act 4% and A549 viability inconclusive.
For COc1ccc(CCCNC(=O)C2Cc3c(-c4cccc(NC(C)=O)c4)ccnc3O2)cc1 (configuration not stated) the results were ClpP mod -4% and Nrf2 ARE act 0%.
For C=CCNC(=O)/C(C#N)=C/c1ccc(SC)cc1 the results were miR-21 reporter -15%, Nrf2 block 0%, ClpP mod 25µM*, TCR activator -5%, Nrf2 ARE act 5% and A549 viability 1%.
CCOC(=O)[C@@H]1[C@H]2COc3ccccc3[C@@H]2N2C(=O)N(c3ccccc3)C(=O)[C@]12C was read as miR-21 reporter -1%, Nrf2 block 2%, ClpP mod 1%, TCR activator -5%, Nrf2 ARE act -1% and A549 viability -6%.

For reference, part of the list above:
Screening COc1cc(NC(=O)COC(=O)c2[nH]c(C)c(C(C)=O)c2C)cc(OC)c1 returned Nrf2 block 13µM*, TCR activator 1%, Nrf2 ARE act 6% and A549 viability -17%.
`COC(=O)[C@]12CCCCC=C1N(Cc1cccc3ccccc13)C(=O)[C@H](CC(=O)NCc1cccc(C(F)(F)F)c1)C2` gave ClpP mod -8% and Nrf2 ARE act 3%.
Screening CCOc1ccccc1-c1nc(CN2CCCN(C(=O)c3ccco3)CC2)c(C)o1 returned miR-21 reporter -4%, Nrf2 block -10%, ClpP mod 45%, TCR activator -7%, Nrf2 ARE act 1% and A549 viability -1%.
